Measured values reported in US20190185560A1 (Novo Nordisk, published 2019).

Protein sequences, listed by entry. Tags and fused reporters are not part of them. Residues count along the entry.
UniProt Q9NP99, 21-234 limits assumed: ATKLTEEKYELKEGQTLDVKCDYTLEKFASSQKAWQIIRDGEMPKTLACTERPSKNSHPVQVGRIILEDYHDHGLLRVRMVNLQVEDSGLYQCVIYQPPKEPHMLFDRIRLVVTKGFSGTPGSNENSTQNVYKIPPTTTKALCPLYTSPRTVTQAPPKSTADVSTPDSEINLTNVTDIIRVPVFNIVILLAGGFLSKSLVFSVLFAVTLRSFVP
UniProt Q9NP99, 21-205 limits assumed: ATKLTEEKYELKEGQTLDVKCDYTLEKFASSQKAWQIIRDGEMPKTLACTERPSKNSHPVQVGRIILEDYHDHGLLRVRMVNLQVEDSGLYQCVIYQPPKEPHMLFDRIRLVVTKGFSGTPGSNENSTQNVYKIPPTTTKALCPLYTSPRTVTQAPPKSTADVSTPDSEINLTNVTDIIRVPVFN

T1: cynomolgus TREM-1-Fc (cynomolgus monkey)
T1 construct: also called cTREM-1
T1 chain: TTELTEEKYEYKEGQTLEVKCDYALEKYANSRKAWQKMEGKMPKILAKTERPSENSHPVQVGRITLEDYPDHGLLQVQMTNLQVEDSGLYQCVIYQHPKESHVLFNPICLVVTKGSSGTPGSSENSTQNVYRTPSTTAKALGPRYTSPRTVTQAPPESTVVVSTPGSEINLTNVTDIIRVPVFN


Legend:
[1] = biological target: T2, human TREM-1 on cells (BWZ′36/hTREM-1 reporter cell line; hypoxic M2 macrophages) (human, UniProt Q9NP99 21-234); assay: cell-based or functional assay
[2] = biological target: T2, human TREM-1 on cells (BWZ′36/hTREM-1 …); assay: cell-based or functional assay; remark: listed apart in the source
human TREM-1-Fc = biological target: T3, human TREM-1-Fc (human, UniProt Q9NP99 21-205, limits assumed); assay: SPR (ProteOn), antibody captured via anti-Fc, TREM-1-Fc as analyte, 1:1 Langmuir fit, 25 C
T3 construct: also called hTREM-1
Experimental: (§1) The binding kinetics of the mAb 0170 variants towards human TREM-1-Fc and cynomolgus TREM-1-Fc were determined, respectively. Binding studies were performed on a ProteOn Analyzer (BioRad) that measures molecular interactions in real time through surface plasmon resonance. Experiments were run at 25° C. and the samples were stored at 15° C. in the sample compartment. The signal (RU, response units) reported by the ProteOn is directly correlated to the mass on the individual sensor chip surfaces in the six parallel flow cells. Anti-human Fc monoclonal or anti-murine Fc polyclonal antibody from Biacore human or mouse Fc capture kits were immobilized in horizontal direction onto flow cells of a GLM sensor chip according to the manufacturer's instructions. The final immobilization level of capture antibody was approximately 2600-6000 RU in each experiment. The capture of purified monoclonal mouse or recombinantly expressed anti-hTREM-1 antibodies was conducted by diluting the antibodies to 5-10 nM into running buffer (10 mM Hepes 0.15 M NaCl, 5 mM EDTA, 0.05% surfactant P20, pH 7.4) followed by injection in vertical direction at 30 μL/min for 60 sec, creating reference interspots adjacent to all flow cells with only anti-Fc antibody immobilized. […] Binding of hTREM-1 or cTREM-1 proteins was conducted by injecting analyte (antigen) over all flow cells in horizontal direction to allow for comparative analyses of binding to different captured anti-TREM-1 antibodies relative to binding to the reference interspot. hTREM-1 or cTREM-1 proteins were diluted serially 1:3 to 1.2-100 nM or into running buffer, injected at 100 μL/min for 250 s and allowed to dissociate for 600 s. The GLM surface was regenerated after each injection cycle of analyte via two 18 s injections of 10 mM Glycine, pH 1.7 and 50 mM NaOH at 100 μL/min. This regeneration step removed the anti-TREM-1 antibody and any bound TREM-1 protein from the immobilized capture antibody surface and allowed for the subsequent binding of the next interaction sample pair.

cynomolgus TREM-1-Fc = biological target: T1, cynomolgus TREM-1-Fc; assay: as above
Experimental: as §1

Row | IC50: inhibition of B-galactosidase signal of BWZ'36/hTREM-1 reporter cells stimulated with PGN and recombinant PGLYRP1 [1] [nM] | IC50: inhibition of B-galactosidase signal of BWZ'36/hTREM-1 reporter cells stimulated with PGN and PGLYRP1 expressed by activated neutrophils [2] [nM] | Kd (human TREM-1-Fc) [nM] | koff (human TREM-1-Fc) [s⁻¹] | kon (human TREM-1-Fc) [M⁻¹ s⁻¹] | koff (cynomolgus TREM-1-Fc) [s⁻¹] | kon (cynomolgus TREM-1-Fc) [M⁻¹ s⁻¹] | Binder
1 | 0.31 | 0.31 | 0.08 | 0.0003 | 4e+06 | ~0.0003 | 200000 | mAb 0325 (mAb 0170 variant, heavy chain N57S) (antibody, human IgG4 S228P, kappa, V domains shown) VH: EVQLVESGGGLVQPGGSLKLSCAASGFTFSTYAMHWVRQASGKGLEWVGRIRTKSSSYATYYAASVKGRFTISRDDSKNTAYLQMNSLKTEDTAVYYCTRDMGIRRQFAYWGQGTLVTVSS VL: DIVLTQSPDSLAVSLGERATINCRASESVDTFDYSFLHWYQQKPGQPPKLLIYRASNLESGVPDRFSGSGSGTDFTLTISSLQAEDVAVYYCQQSNEDPYTFGQGTKLEIKR
2 | 0.24 | 0.22 | 0.1 | 0.0003 | 2e+06 | 7e-05 | 600000 | mAb 0330 (mAb 0170 variant, light chain F32A, E27Q, E97Q) (antibody, human IgG4 S228P, kappa, V domains shown) VH: EVQLVESGGGLVQPGGSLKLSCAASGFTFSTYAMHWVRQASGKGLEWVGRIRTKSSNYATYYAASVKGRFTISRDDSKNTAYLQMNSLKTEDTAVYYCTRDMGIRRQFAYWGQGTLVTVSS VL: DIVLTQSPDSLAVSLGERATINCRASQSVDTADYSFLHWYQQKPGQPPKLLIYRASNLESGVPDRFSGSGSGTDFTLTISSLQAEDVAVYYCQQSNQDPYTFGQGTKLEIKR
3 | 0.36 | 0.31 | 0.2 | 0.0007 | 3e+06 | – | 200000 | mAb 0326 (mAb 0170 variant, heavy chain A59Y, N57S) (antibody, human IgG4 S228P, kappa, V domains shown) VH: EVQLVESGGGLVQPGGSLKLSCAASGFTFSTYAMHWVRQASGKGLEWVGRIRTKSSSYYTYYAASVKGRFTISRDDSKNTAYLQMNSLKTEDTAVYYCTRDMGIRRQFAYWGQGTLVTVSS VL: DIVLTQSPDSLAVSLGERATINCRASESVDTFDYSFLHWYQQKPGQPPKLLIYRASNLESGVPDRFSGSGSGTDFTLTISSLQAEDVAVYYCQQSNEDPYTFGQGTKLEIKR
